This note sets out measurements from article PMC8427951, “Design, synthesis, and preliminary evaluation of a potential synthetic opioid rescue agent” (Journal of Biomedical Science, 2021).

By UniProt entry, the sequences of proteins in these tests, tags left out.
UniProt P35372, whole entry, looked up: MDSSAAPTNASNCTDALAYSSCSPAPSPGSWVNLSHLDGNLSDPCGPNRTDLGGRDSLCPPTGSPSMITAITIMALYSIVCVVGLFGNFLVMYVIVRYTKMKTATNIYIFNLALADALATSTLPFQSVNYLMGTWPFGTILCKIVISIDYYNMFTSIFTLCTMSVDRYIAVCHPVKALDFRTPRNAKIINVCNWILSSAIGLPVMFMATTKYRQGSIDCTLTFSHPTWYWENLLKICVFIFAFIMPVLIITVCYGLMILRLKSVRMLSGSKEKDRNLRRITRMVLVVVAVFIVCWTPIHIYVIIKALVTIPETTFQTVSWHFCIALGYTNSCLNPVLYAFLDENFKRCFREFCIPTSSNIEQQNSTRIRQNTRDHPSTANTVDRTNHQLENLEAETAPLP

Several values for one entry are separate records, joined by “and”; a condition that tells them apart may be missing. Equal values may be shown once.

The target of experiment [1] is T1, human μ opioid receptor (MOR) (Homo sapiens, UniProt P35372). Nature of the experiment: Forskolin-induced cAMP accumulation (HitHunter cAMP assay), MOR antagonism versus fentanyl. Conditions: read-out: MOR antagonism IC50; versus EC90 of fentanyl; 15 min pretreatment; mean ± SEM, at least three measurements. (In general: cAMP levels reflect the balance of adenylyl cyclase and phosphodiesterase activity.)

The target in experiment [2] is T1, human μ opioid receptor (MOR). Nature of the experiment: Schild analysis of antagonism against fentanyl, cAMP functional assay. Conditions: against fentanyl at MORs; for pA2 ± SEM: HillSlope and SchildSlope constrained to 1; for Schild slope ± SEM: three concentrations of antagonist; for Kd: read-out: Ke ± SEM (equilibrium dissociation constant), from EC50 shift at a single antagonist dose.

Take `CO[C@@H]1CC[C@@]2(O)[C@H]3Cc4ccc(O)c5c4[C@@]2(CCN3CC2CC2)[C@H]1O5` [Compound 26]: in experiment [1], the IC50 (in general, the point on the concentration scale where inhibition reaches its midpoint) was determined as 4.52 nM.
On to `C=CCOC12CCC(=C)C3Oc4c(O)ccc5c4C31CCN(CC1CC1)C2C5` (stereo not shown) [Compound 28], for which, in experiment [1], the IC50 came out at 2.03 nM.
Regarding `C=C1CC[C@@]2(OCCC)[C@H]3Cc4ccc(O)c5c4[C@@]2(CCN3CC2CC2)[C@H]1O5` [Compound 29], in experiment [2], the “pA2 ± SEM” value was 10.01 and 10.01 ± 0.18; the “Schild slope ± SEM” value was found to be 1.04 ± 0.12; the Kd is 0.103 nM. In addition, the IC50 in experiment [1] came to 2.06 nM.
For `O=C(/C=C/c1ccc(Cl)cc1)N[C@@]12CCC(=O)[C@@H]3Oc4c(O)ccc5c4[C@@]31CCN(CC1CC1)[C@@H]2C5` [CCAM, clocinnamox, reference compound], in experiment [1], the IC50 was 29.6 nM.
On to `O=C1CC[C@@]2(OCCCC3CCCCC3)[C@H]3Cc4ccc(O)c5c4[C@@]2(CCN3CC2CC2)[C@H]1O5` [Compound 16], for which the IC50 in experiment [1] is greater than 10000 nM.
For `CCC(=O)O[C@@]12CCC(=O)[C@@H]3Oc4c(O)ccc5c4[C@@]31CCN(CC1CC1)[C@@H]2C5` [Compound 14], in experiment [1], the IC50 came to 4.22 nM.
Consider `O=C1CC[C@@]2(OC[C@H](O)CO)[C@H]3Cc4ccc(O)c5c4[C@@]2(CCN3CC2CC2)[C@H]1O5` [Compound 22], for which the IC50 in experiment [1] was 6.49 nM.
On to `C=C1CC[C@@]2(OC[C@H](O)CO)[C@H]3Cc4ccc(O)c5c4[C@@]2(CCN3CC2CC2)[C@H]1O5` [Compound 30], for which, in experiment [2], the “pA2 ± SEM” value is 9.77 and 9.77 ± 0.14; the “Schild slope ± SEM” value was found to be 1.22 ± 0.14; the Kd was determined as 0.159 nM. In addition, the IC50 in experiment [1] is 3.58 nM.
With β-funaltrexamine, the IC50 in experiment [1] was found to be 31 nM.
For `CO[C@H]1CC[C@@]2(O)[C@H]3Cc4ccc(O)c5c4[C@@]2(CCN3CC2CC2)[C@H]1O5` [Compound 25], the IC50 in experiment [1] amounted to 18.6 nM.
